# Source: patent publication US5834487A, “Inhibition of 26S and 20S proteasome by indanones” (CV Therapeutics, priority 1996, dated 1998)
# Molecular target: 20S catalytic subunit of the proteasome (multicatalytic proteinase complex) (Bos taurus, UniProt Q32KL2)
# Assay: 20S proteasome chymotryptic activity, fluorogenic peptide cleavage
# Details: 50 μM succinyl-leu-leu-val-tyr-7-amino-4-methyl coumarin, 15 minutes at 37° C, pH7.5
# Method: Compounds of this invention prepared according to the method of Example 1 were tested as follows. The 20S catalytic subunit of the proteasome (also known as the multicatalytic proteinase complex) was purified to homogeneity from bovine brain according to published methods (Wilk S. and Orlowski, M, 40 842 J. Neurochem (1983)). The chymotryptic activity of the complex is measured by the increase in fluorescence following cleavage of the substrate peptide succinyl-leucine-leucine-valine-tyrosine-7-amino-4-methyl coumarin. The standard in vitro assay consists of 2 μg 20S proteasome, 0.1-100 μg/ml proteasome inhibitor in 200 μl 50 mM HEPES, containing 0.1% sodium dodecyl sulphate, pH7.5. The proteolytic reaction is initiated by the addition of 50 μM fluorogenic peptide substrate and allowed to progress for 15 minutes at 37° C. The reaction is terminated by the addition of 100 μl of 100 mM acetate buffer, pH4.0. The rate of proteolysis is directly proportional to the amount of liberated aminomethylcoumarin which is measured by fluorescent spectroscopy (EX 370 nm, EM 430 nm).
row,IC50,Structure (SMILES)
1,> 10 µg/mL,COc1ccc2c(c1)C(CC(=O)N[C@H](CC(C)C)C(=O)N[C@H](Cc1ccc(O)cc1)C(N)=O)CC2=O (stereo partly drawn)
2,> 10 µg/mL,COc1ccc2c(c1)C(CC(=O)N[C@H](CC(C)C)C(=O)N1Cc3ccccc3C[C@@H]1C(N)=O)CC2=O (stereo partly drawn)
3,> 10 µg/mL,COc1ccc2c(c1)C(CC(=O)N[C@H](CC1CCCCC1)C(=O)N[C@H](CC(C)C)C(N)=O)CC2=O (stereo partly drawn)
